Measurements reported in publication PMC3723849 (PLoS ONE, 2013).

The chains behind the UniProt entries cited, without tags or fusion partners. Residues count along the entry.
UniProt Q04609, 44-750: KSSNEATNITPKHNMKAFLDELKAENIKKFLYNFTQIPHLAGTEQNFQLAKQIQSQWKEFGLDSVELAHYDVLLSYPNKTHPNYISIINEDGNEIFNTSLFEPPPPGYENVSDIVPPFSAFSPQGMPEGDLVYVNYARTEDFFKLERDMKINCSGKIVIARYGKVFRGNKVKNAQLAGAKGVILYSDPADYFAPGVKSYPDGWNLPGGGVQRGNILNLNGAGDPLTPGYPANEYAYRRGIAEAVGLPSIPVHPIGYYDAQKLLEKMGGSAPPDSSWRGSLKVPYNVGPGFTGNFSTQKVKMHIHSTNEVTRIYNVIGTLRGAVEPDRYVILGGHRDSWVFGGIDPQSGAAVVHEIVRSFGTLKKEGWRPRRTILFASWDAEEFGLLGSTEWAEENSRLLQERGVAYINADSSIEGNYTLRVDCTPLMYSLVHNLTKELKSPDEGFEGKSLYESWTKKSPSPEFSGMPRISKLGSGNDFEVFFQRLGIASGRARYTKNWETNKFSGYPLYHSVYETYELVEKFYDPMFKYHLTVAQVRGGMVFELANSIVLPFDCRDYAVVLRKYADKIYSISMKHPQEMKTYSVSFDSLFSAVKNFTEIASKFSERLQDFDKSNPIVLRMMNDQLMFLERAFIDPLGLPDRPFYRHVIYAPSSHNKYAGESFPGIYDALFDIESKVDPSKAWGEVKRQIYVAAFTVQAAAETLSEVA

Tests used:
[1] = molecular target: T1, His-tagged PSMA (PSMA-His6), soluble ectodomain of prostate-specific membrane antigen (human, UniProt Q04609 44-750); test: cell-based or functional assay
[2] = molecular target: T1, His-tagged PSMA (PSMA-His6), soluble …; test: enzyme inhibition assay; PSMA-His6 pre-incubated with peptide (37°C, 30 min, TBS), then NAAG substrate added; released glutamate read with the Amplex Red kit; Ki from the Cheng-Prusoff equation with KM = 0.13 µM and 1 µM NAAG; conditions: both partners purified

B1: Peptide 562 (peptide)
peptide: SHSFSVGSGDHSPFT
notes: 15-mer from phage clones D, H; Made on Rink amide resin, so a C-terminal amide is to be expected (surmised); also called 562 monomer; source: synthetic peptide (HPLC purified)
IC50 of inhibition of NAAG hydrolysis by PSMA-His6 (Amplex Red glutamate assay, 1 µM NAAG) [1]: 661 µM
Ki [2]: 76 µM
